This is a selection; strong and weak results do not stand in their true shares. The source made the active and inactive calls.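 How the source made its calls: active means inhibition of at least 50% at 8 µM in the primary screen; inactive means the rest.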
target: Protein Mdm4 (Homo sapiens) + E3 ubiquitin-protein ligase Mdm2 (Homo sapiens) (UniProt O15151+Q00987); experiment: inhibitors of human Mdm2-MdmX association, primary screen, cell-based, luminescence, split luciferase, SaOS-2, uHTS (AID 485346); conditions: SaOS-2 split-luciferase Mdm2/MdmX complementation, at 8 µM, active compounds read high

Protein sequences, listed by entry. Tags and fused reporters are not part of them. Lines headed by an entry give the natural chain unless they say otherwise; changes in a name come on top.
UniProt O15151: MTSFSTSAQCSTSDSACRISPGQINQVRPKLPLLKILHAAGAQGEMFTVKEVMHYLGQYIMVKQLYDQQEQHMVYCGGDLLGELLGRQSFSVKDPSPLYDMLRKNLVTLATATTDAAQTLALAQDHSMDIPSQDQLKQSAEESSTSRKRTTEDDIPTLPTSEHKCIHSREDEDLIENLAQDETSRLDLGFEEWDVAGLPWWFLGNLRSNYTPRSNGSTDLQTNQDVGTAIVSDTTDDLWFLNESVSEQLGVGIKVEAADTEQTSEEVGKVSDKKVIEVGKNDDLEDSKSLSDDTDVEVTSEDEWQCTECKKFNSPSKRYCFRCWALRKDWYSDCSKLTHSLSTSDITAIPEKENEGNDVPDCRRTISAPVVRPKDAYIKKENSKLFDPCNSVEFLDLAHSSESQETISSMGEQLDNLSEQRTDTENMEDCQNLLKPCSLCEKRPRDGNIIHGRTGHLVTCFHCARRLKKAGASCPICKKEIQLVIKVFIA
UniProt Q00987, whole entry, looked up: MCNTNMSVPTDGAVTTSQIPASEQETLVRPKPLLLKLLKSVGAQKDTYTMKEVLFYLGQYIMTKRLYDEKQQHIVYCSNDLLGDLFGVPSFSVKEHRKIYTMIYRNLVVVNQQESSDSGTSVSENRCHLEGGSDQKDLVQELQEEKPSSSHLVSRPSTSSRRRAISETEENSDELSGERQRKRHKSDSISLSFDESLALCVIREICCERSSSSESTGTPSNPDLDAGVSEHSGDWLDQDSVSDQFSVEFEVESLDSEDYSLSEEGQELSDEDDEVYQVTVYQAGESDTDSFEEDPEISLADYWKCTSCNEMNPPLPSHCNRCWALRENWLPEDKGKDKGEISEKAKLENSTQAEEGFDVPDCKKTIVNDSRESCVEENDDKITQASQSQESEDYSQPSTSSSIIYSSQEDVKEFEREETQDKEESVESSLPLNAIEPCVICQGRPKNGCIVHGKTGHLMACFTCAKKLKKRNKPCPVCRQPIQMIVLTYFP

Q: COc1ccc(N/C(=N/P(=O)(N2CCOCC2)N2CCOCC2)N2CCOCC2)cc1 was tested. Which inhibition did it give?
A: Its inhibition is inactive: -0.746%.

Q: Which inhibition does the source give for COc1cc(I)ccc1[As](=O)(O)O here?
A: Its inhibition is inactive: 3.96%.

Q: For COc1ccc2nc(NP(=O)(c3ccccc3)c3ccccc3)sc2c1, which inhibition is on record?
A: The inhibition was inactive: 19.1%.

Q: With Cc1c2c(nc3ccccc13)SC(C(Cl)Cl)C2 (stereo not given) as the compound, how does the inhibition read?
A: The inhibition was inactive: 11.7%.

Q: With Cc1cc(=O)[nH]c(N[N+](=O)[O-])n1 as the compound, how does the inhibition read?
A: The inhibition was inactive: -25.6%.

Q: With O=C(OC1CN2CCC1CC2)C12CC3CC(CC(C3)C1)C2 (stereo not given) as the compound, how does the inhibition read?
A: The inhibition was inactive: 1.09%.

Q: O=[N+]([O-])c1cc([N+](=O)[O-])c(-c2ccn[nH]2)s1 was tested. Which inhibition did it give?
A: Its inhibition is inactive: 41%.

Q: For CC(C)NC(=O)NP(=O)(Oc1ccccc1)Oc1ccccc1, which inhibition is on record?
A: The inhibition was inactive: -19.2%.

Q: Which inhibition does the source give for CCN(CC)C(=S)SC(NC=O)C(Cl)(Cl)Cl (stereo not given) here?
A: The inhibition was inactive: 27.2%.

Q: For O=C(OC1CN2CCC1CC2)c1cccc2[nH]cnc12 (stereo not given), which inhibition is on record?
A: The inhibition was inactive: -2.03%.

Q: With ClCCSc1nnc(-c2cccnc2)o1 as the compound, how does the inhibition read?
A: The inhibition was inactive: -20.3%.

Q: CC(C)c1ccc(OP(=O)(Nc2ccccn2)Oc2ccccc2F)cc1 (stereo not given) was tested. Which inhibition did it give?
A: Its inhibition is inactive: -4.67%.

Q: With Cc1ccc(OP(=O)(Nc2ccc([N+](=O)[O-])cn2)Oc2ccc(C)cc2)cc1 as the compound, how does the inhibition read?
A: The inhibition was inactive: -0.498%.

Q: Cc1ccc2nc3c(c(C)c2c1)CC(C(Cl)Cl)S3 (stereo not given) was tested. Which inhibition did it give?
A: The inhibition was inactive: -17.8%.

Q: With COc1cc(C(=O)NCC2(N3CCOCC3)CCCCC2)ccc1OCC(C)C as the compound, how does the inhibition read?
A: Its inhibition is inactive: 10.6%.

Q: How did the inhibition turn out when C[As](=O)(O)c1cccc(C(=O)O)c1 was run?
A: Its inhibition is inactive: 17.6%.

Q: How did the inhibition turn out when O=[As](O)(c1ccc(O)cc1)c1ccccc1O was run?
A: Its inhibition is inactive: -0.49%.

Q: For Cc1cc(SC(NC=O)C(Cl)(Cl)Cl)ncn1 (stereo not given), which inhibition is on record?
A: Its inhibition is inactive: 2.14%.

Q: How did the inhibition turn out when O=P(Nc1ccccn1)(c1cccc2ccccc12)c1cccc2ccccc12 was run?
A: Its inhibition is inactive: -33.2%.

Q: With CCOC(=O)Nc1cccc([As](=O)(O)O)c1 as the compound, how does the inhibition read?
A: The inhibition was inactive: 8.26%.

Q: Which inhibition does the source give for Cc1cc(SC(NC(=O)c2ccccc2)C(Cl)(Cl)Cl)nc(C(C)C)n1 (stereo not given) here?
A: The inhibition was inactive: 2.88%.

Q: With CCCCOc1ccc(C(=O)NCC2(N3CCCCC3)CCCCC2)cc1OC as the compound, how does the inhibition read?
A: Its inhibition is inactive: 1.76%.

Q: Which inhibition does the source give for CCOC(=O)Nc1ccc([As](=O)(O)O)c(O)c1 here?
A: The inhibition was inactive: -19.2%.

Q: CCC(C)N(CC(C)C)C(=S)SC(NC(C)=O)C(Cl)(Cl)Cl (stereo not given) was tested. Which inhibition did it give?
A: The inhibition was inactive: 9.41%.

Q: For O=C(OC1CN2CCC1CC2)c1cccc([N+](=O)[O-])c1 (stereo not given), which inhibition is on record?
A: The inhibition was inactive: -20.4%.

Q: Which inhibition does the source give for CCOC(=O)c1ccc(NC(=O)C(C)(CCl)SC)cc1 (stereo not given) here?
A: The inhibition was inactive: -1.72%.

Q: O=C(Nc1ccncc1[N+](=O)[O-])c1ccc([N+](=O)[O-])cc1[N+](=O)[O-] was tested. Which inhibition did it give?
A: Its inhibition is inactive: 30%.

Q: Which inhibition does the source give for O=C(COc1ccccc1)OC1CN2CCC1CC2 (stereo not given) here?
A: The inhibition was inactive: 21%.

Q: COP1(=S)c2c(C)nn(CCC#N)c2N=C(c2ccc(F)cc2)N1C (stereo not given) was tested. Which inhibition did it give?
A: Its inhibition is inactive: 20%.

Q: For CN(C(=O)Cc1ccc(Cl)c(Cl)c1)[C@@H]1CCCC[C@H]1N1CCCC1, which inhibition is on record?
A: Its inhibition is inactive: 13.5%.

Q: CC(C)/C=N\N=C(\N)N[N+](=O)[O-] was tested. Which inhibition did it give?
A: Its inhibition is inactive: 13.3%.

Q: CC1(CBr)Cn2c(nc3ccccc3c2=O)S1 (stereo not given) was tested. Which inhibition did it give?
A: Its inhibition is inactive: 3.73%.

Q: With O=[As](O)(c1ccccc1Br)c1ccccc1Br as the compound, how does the inhibition read?
A: The inhibition was inactive: -1.1%.

Q: COc1ccccc1CNC(=O)COC(=O)C(O)(c1ccccc1)c1ccccc1 was tested. Which inhibition did it give?
A: Its inhibition is inactive: 9.87%.

Q: Which inhibition does the source give for CC(C)(C)C(=O)NC(Sc1ncccn1)C(Cl)(Cl)Cl (stereo not given) here?
A: The inhibition was inactive: 8.11%.

Q: For Clc1n[nH]nc1-c1nn[nH][15n]1, which inhibition is on record?
A: Its inhibition is inactive: -16.1%.

Q: With CCOP(=O)(NC(=NC(C)c1ccccc1)NC(C)c1ccccc1)OCC (stereo not given) as the compound, how does the inhibition read?
A: The inhibition was inactive: -5.51%.

Q: Which inhibition does the source give for CCC1=CC2Cc3nc4ccc(Cl)cc4c(N)c3C(C1)C2 (stereo not given) here?
A: The inhibition was active: 83.6%.

Q: With O=P1(Nc2ccccn2)COc2ccccc2OC1 as the compound, how does the inhibition read?
A: The inhibition was inactive: 1.07%.

Q: With CCOP(=O)(Nc1ccc(C)cn1)OCC as the compound, how does the inhibition read?
A: The inhibition was inactive: 32.5%.

Q: How did the inhibition turn out when CN(CCCl)Cc1cc(Cl)c(NC2=NCCN2)c(Cl)c1 was run?
A: Its inhibition is inactive: -7.24%.

Q: How did the inhibition turn out when Nc1cccc([As](=O)(O)c2ccccc2)c1 was run?
A: The inhibition was inactive: 19.2%.

Q: How did the inhibition turn out when Cc1ccc(OCC(=O)OC2CN3CCC2CC3)cc1 (stereo not given) was run?
A: The inhibition was inactive: -4.94%.

Q: O=[As](O)(c1cccs1)c1cccs1 was tested. Which inhibition did it give?
A: Its inhibition is inactive: 10.5%.

Q: Which inhibition does the source give for NS(=O)(=O)c1cccc(NC(=O)COC(=O)C(O)(c2ccccc2)c2ccccc2)c1 here?
A: The inhibition was inactive: -21%.

Q: For O=P1(Nc2ccc(Br)cn2)COc2ccccc2OC1, which inhibition is on record?
A: Its inhibition is inactive: 2.05%.

Q: With O=P1(Nc2ncccn2)COc2ccccc2OC1 as the compound, how does the inhibition read?
A: Its inhibition is inactive: -37.9%.

Q: Which inhibition does the source give for CN(C)C1(CNC(=O)c2ccc(S(C)(=O)=O)cc2)CCCCC1 here?
A: Its inhibition is inactive: -19.5%.

Q: O=C(/C=C/c1ccccc1)OC1CN2CCC1CC2 (stereo not given) was tested. Which inhibition did it give?
A: Its inhibition is inactive: 23.7%.

Q: Which inhibition does the source give for Cc1ccc(C(=O)OC2CN3CCC2CC3)cc1 (stereo not given) here?
A: Its inhibition is inactive: 7.3%.

Q: For CC1CCC(C(C)C)C(OP(=O)(Nc2ccccn2)c2ccccc2)C1 (stereo not given), which inhibition is on record?
A: Its inhibition is inactive: 32.2%.

Q: With Cc1nn(-c2ccccc2)c2c1P(=O)(N1CCOCC1)N(C)C(c1ccccc1)=N2 (stereo not given) as the compound, how does the inhibition read?
A: Its inhibition is inactive: 12%.

Q: Which inhibition does the source give for CN(C(=O)Cc1ccccc1)[C@@H]1CC[C@]2(CCCO2)C[C@H]1N1CCCC1 here?
A: The inhibition was inactive: -9.27%.

Q: How did the inhibition turn out when CCOP1(=S)c2c(C)nn(CCC#N)c2N=C(c2ccc(F)cc2)N1C (stereo not given) was run?
A: Its inhibition is inactive: 5.51%.

Q: How did the inhibition turn out when N#CCCN(C(=O)COC(=O)C(O)(c1ccccc1)c1ccccc1)c1ccc(F)cc1 was run?
A: The inhibition was inactive: -9.25%.

Q: How did the inhibition turn out when CN(C(=O)Cc1ccc(Cl)c(Cl)c1)[C@H]1CC[C@@]2(CCCO2)C[C@@H]1N1CCCC1 was run?
A: The inhibition was inactive: 11.3%.

Q: Which inhibition does the source give for O=[N+]([O-])c1ccc2c(c1)nnn2O here?
A: The inhibition was inactive: 7.8%.

Q: For CN(C)C(=O)c1cc([N+](=O)[O-])cc2c1-c1c(cc([N+](=O)[O-])cc1[N+](=O)[O-])C2=O, which inhibition is on record?
A: The inhibition was active: 82.1%.

Q: NC(=O)Nc1ccc([As](=O)(O)O)cc1 was tested. Which inhibition did it give?
A: Its inhibition is inactive: 7.1%.

Q: With O=C(O)COc1ccc([As](=O)(O)O)cc1[N+](=O)[O-] as the compound, how does the inhibition read?
A: The inhibition was inactive: -10.7%.

Q: With Nc1ccccc1[As](=O)(O)c1ccccc1 as the compound, how does the inhibition read?
A: The inhibition was inactive: -2.66%.

Q: O=P(Nc1nccs1)(Oc1ccccc1)Oc1ccccc1 was tested. Which inhibition did it give?
A: Its inhibition is inactive: -19.8%.

Q: Which inhibition does the source give for O=P(Nc1nccs1)(c1ccccc1)c1nc2ccccc2s1 (stereo not given) here?
A: The inhibition was inactive: 13.5%.

Q: How did the inhibition turn out when CCOP1(=S)c2c(C)nn(CCC#N)c2N=C(c2ccccc2F)N1C (stereo not given) was run?
A: The inhibition was inactive: -3.27%.

Q: With CS(=O)(=O)c1cc([N+](=O)[O-])c2no[n+]([O-])c2c1 as the compound, how does the inhibition read?
A: Its inhibition is inactive: -0.415%.
